This passage reports IC50 and EC50 results from ChEMBL document CHEMBL1145498, “A systematic interaction map of validated kinase inhibitors with Ser/Thr kinases” (Proc Natl Acad Sci U S A, 2007).

Protein sequences, listed by entry. Tags and fused reporters are not part of them. Lines headed by an entry give the natural chain unless they say otherwise; changes in a name come on top. Chains listed by the source or under a name are the forms on record and can include a tag or linker.
UniProt P13569, as listed by the source: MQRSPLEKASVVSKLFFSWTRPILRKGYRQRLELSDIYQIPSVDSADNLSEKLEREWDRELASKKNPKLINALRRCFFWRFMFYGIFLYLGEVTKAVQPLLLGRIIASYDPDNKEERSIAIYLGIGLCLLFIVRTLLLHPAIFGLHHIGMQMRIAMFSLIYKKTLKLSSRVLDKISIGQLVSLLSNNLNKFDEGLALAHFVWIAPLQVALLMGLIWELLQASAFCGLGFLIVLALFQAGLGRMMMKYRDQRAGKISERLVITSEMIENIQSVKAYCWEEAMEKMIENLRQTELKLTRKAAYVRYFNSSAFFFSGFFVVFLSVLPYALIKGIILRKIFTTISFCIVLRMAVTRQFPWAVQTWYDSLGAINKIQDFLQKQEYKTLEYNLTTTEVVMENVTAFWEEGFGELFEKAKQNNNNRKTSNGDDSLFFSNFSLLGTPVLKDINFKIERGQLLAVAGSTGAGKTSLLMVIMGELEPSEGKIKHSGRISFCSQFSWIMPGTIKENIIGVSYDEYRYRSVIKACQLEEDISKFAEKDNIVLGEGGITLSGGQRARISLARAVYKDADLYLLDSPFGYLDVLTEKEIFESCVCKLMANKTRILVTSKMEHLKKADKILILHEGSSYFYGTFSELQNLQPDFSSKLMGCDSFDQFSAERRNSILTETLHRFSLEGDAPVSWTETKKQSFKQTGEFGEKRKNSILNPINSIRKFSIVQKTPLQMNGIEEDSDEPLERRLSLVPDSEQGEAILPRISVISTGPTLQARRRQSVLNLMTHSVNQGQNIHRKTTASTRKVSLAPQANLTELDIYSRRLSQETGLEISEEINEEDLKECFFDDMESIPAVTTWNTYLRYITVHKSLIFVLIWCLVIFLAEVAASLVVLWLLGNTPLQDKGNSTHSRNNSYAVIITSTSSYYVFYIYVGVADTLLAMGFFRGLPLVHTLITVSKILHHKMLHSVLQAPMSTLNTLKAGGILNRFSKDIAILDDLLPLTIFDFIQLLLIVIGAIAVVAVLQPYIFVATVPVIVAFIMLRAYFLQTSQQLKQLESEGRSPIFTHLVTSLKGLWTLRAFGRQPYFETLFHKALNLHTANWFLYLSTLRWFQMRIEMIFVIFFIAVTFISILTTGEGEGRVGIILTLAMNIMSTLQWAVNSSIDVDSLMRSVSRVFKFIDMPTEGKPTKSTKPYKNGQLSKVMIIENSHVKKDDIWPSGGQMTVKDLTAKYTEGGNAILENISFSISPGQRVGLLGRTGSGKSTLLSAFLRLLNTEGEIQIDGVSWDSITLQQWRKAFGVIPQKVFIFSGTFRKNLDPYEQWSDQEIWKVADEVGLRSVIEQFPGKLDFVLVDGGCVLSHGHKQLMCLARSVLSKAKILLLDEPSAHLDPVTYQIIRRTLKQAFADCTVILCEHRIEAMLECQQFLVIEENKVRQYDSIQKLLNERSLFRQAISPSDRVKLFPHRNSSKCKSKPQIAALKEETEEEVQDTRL
UniProt P49840: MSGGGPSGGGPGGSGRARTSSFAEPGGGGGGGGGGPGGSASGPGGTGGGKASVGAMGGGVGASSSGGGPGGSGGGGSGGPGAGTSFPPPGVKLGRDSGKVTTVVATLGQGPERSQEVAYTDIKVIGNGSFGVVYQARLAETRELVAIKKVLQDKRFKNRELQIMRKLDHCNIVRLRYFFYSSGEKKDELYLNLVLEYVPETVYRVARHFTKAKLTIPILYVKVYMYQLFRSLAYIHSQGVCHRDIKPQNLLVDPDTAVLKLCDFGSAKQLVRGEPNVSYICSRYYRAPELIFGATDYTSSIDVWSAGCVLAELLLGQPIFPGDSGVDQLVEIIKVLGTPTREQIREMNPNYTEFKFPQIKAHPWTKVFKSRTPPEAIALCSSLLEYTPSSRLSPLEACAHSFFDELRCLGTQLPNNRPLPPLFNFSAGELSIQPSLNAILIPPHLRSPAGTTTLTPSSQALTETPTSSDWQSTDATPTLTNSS

What is called IC50 is the concentration that inhibits the measured activity by half. Higher therefore signals a need for much substance. What is called EC50 is the concentration at which the effect is half-maximal.

The nature of assay [1]: Inhibition of p34cdc2/cyclin B.
For assay [2], the target named is Cystic fibrosis transmembrane conductance regulator (Homo sapiens, UniProt P13569, F508DEL). The experiment in a line: Activity at human wild type CFTR expressed in F508del-CF1 cells assessed as forskolin stimulated iodide flux. Format: cell-based.
Assay [3] concerns the target Glycogen synthase kinase-3 alpha (Homo sapiens, UniProt P49840).

`CC(C)[C@H](CO)Nc1nc(Nc2cccc(Cl)c2)c2ncn(C(C)C)c2n1` [PURVALANOLA]: it took 4 nM to reach half-maximal inhibition in assay [1] (IC50).

As to `CCCCc1c(-c2ccc(O)cc2)[nH]c2nccnc12` [ALOISINE A], the EC50 in assay [2] stood at 111 nM. In assay [3], this molecule came in with an IC50 of 1500 nM.
